Test results published in patent US20070202165A1, “Method for a supplemental dietary composition having a multi-phase dissolution profile” (priority 2006, published 2007).

Test: Solubility test with filtration: amount dissolved until saturated and dry powder remaining on filter paper
Format: physicochemical
Conditions: for Max Amount Dissolved: 100 mL water, added in 1 g increments until visually saturated; for Dry Powder On Filter: gravity filtration, filter paper dried

In the case of “glycine-L-arginine-alpha-ketoisocaproic acid calcium”, the “Max Amount Dissolved” value (Powder type Fine-milled) is reported as 18 g, the “Dry Powder On Filter” value (Powder type Fine-milled) is reported as 0.31 g and the “Max Amount Dissolved” value (Powder type Regular) is reported as 18 g. The “Dry Powder On Filter” value (Powder type Regular) was 0.42 g and the “Fold Change (unfiltered regular substance divided by unfiltered fine-milled substance)” value (regular vs fine-milled, potential theoretical improvement in bioavailability) was 1.4 fold.
